Data from paper PMC8752738, “A propolis-derived small molecule ameliorates metabolic syndrome in obese mice by targeting the CREB/CRTC2 transcriptional complex” (Nature Communications, 2022).

By UniProt entry, the sequences of proteins in these tests, tags left out. Where a name states a change or a piece, a line headed by the entry shows the natural chain unless it says otherwise.
UniProt P16220: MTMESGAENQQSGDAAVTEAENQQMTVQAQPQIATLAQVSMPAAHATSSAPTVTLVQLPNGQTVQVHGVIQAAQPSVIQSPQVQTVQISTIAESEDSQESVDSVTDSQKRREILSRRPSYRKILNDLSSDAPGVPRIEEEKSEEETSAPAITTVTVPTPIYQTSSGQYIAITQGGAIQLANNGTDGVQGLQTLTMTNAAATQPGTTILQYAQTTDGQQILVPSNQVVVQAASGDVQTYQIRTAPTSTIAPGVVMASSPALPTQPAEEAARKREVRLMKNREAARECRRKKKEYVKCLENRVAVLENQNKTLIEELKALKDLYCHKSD

Molecular target: CREB-CRTC2 interaction (Homo sapiens, UniProt P16220)
Experiment: CREB–CRTC2 mammalian two-hybrid assay (GAL4-Luc reporter)
Format: cell-based
Conditions: Figure 1f, DMSO control about 100

baccharin
Relative Gal4-LUC activity, single replicates: 57.9128 and 74.6069 and 107.584

Values joined by “and” are separate entries in the source; they are usually repeats but may differ in a detail not shown here. Equal values may be shown once.
